# Patent publication US9802942B2, “Substituted 4-methyl-pyrrolo[1,2-A]pyrimidine-8-carboxamide compounds and uses thereof for modulating glucocerebrosidase activity” (Northwestern University, priority 2015, dated 2017)
# Sequences of proteins named here, by UniProt entry; tags and fusion partners are left off. Residues count along the entry.
# UniProt P04062, 40-536 limits assumed: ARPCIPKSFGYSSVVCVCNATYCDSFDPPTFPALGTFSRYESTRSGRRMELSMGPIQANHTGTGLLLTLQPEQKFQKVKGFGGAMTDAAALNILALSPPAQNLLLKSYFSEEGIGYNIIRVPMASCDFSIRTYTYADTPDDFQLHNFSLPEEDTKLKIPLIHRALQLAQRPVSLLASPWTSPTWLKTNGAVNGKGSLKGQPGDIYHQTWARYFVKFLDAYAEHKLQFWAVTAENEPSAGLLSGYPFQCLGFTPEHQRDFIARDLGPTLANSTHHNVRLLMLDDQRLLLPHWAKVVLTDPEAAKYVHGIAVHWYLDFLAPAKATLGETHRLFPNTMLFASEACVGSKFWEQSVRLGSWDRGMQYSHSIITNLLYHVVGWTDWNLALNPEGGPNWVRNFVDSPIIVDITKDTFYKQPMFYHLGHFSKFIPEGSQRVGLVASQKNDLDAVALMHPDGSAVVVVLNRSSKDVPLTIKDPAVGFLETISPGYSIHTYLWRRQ
# Tests used:
# purified wt. GCase = purified wt. GCase (Homo sapiens, UniProt P04062); details: cited from earlier work
# [1] = target: glucocerebrosidase (GCase), recombinant wt. enzyme velaglucerase alfa (Homo sapiens, UniProt P04062); experiment: Glucocerebrosidase activity assay with red substrate (Res-β-glc); details: in words
# Procedure: The compounds in DMSO solution 0.5 μL/well were transferred to a black 96-well plate (the final titration was 24 nM to 50 μM, 12 concentrations, 2 times dilution). 33.5 μL enzyme solution (7.5 nM final concentration) was transferred to the wells. After 5 min of incubation at room temperature, the enzyme reaction was initiated by the addition of 33 μL/well blue substrate or 66.5 μL/well red substrate. Final concentrations of the blue substrate (4MU-Glc) and red substrate (Res-Glc) were 1.5 mM and 30 μM, respectively. The red substrate reaction was measured in the Biotek Synergy H1 multi-mode plate reader with Ex=573 nm and Em=610 nm at 37° C. every 20 sec for 30 min. The blue substrate reaction was terminated by the addition of 33 μL/well stop solution (1 M NaOH and 1 M glycine mixture, pH 10) after 30 min of incubation at 37° C. The fluorescence was then measured in the plate reader at Ex=365 nm and Em=440 nm. […]
# The compounds in DMSO solution 0.5 μL/well was transferred to a black 96-well plate (the final titration was 24 nM to 50 μM, 12 concentrations). […] The red substrate reaction was measured in the Biotek Synergy H1 multi-mode plate reader with Ex=573 nm and Em=610 nm at 37° C. in every 20 seconds for 30 min. […] The fluorescence was then measured in the plate reader with Ex=365 nm and Em=440 nm.
# GCase = GCase (Homo sapiens, UniProt P04062); experiment: Binding affinity test by FP assay (competition with probe 3); details: in words; 19.5 nM to 10 μM
# Procedure: The enzyme in GCase enzyme activity buffer (25 μL/well) was added to a 384-well black plate. The fluorescent probe 3 (25 nL/well, 50 nM final concentration) was transferred to a 384-well black plate using a Labcyte Echo 550 Liquid Handler system. Compounds in DMSO stock solution (50 nL) were transferred to the plate. The plate was shaken at room temperature in dark for 20 min. The final concentration was 19.5 nM to […], 10 concentrations, 2 times dilution. The fluorescence polarization was measured in a Molecular Devices Analyst GT with Ex=535 nm and Em=580 nm, G Factor=1.05.
# The enzyme in GCase enzyme activity buffer (25 μL/well) was added to a 384-wells black plate, The fluorescent probe 3 (25 nL/well, 50 nM final concentration) was transferred to a 384-wells black plate by using Labcyte Echo 550 Liquid Handler system. Compounds 1, and 2 in DMSO stock solution (50 nL) (the final titration was 19.5 nM to 10 μM, 10 concentrations) were transferred to the plate. The plate was shook at room temperature in dark for 20 min. The fluorescence polarization was measured in Molecular Devices Analyst GT with Ex=535 nm and Em=580 nm, G Factor=1.05.
smiles,measurement,setting,value
C#Cc1ccc(NC(=O)c2cnn3c(C)cc(C)nc23)cc1,AC50,purified wt. GCase,5.2 µM
same,activation activity in the Res-β-glc substrate enzyme activity assay,[1],did not show any activation activity
same,activity in FP competition with probe 3,GCase,very weak activity
